Measured values: ChEMBL document CHEMBL1141455, “The potential of transient receptor potential vanilloid type 1 channel modulators for the treatment of pain” (J Med Chem, 2007)
pIC50: −log10 of the molar value.

Protein sequences, listed by entry. Tags and fused reporters are not part of them.
UniProt O35433, whole entry: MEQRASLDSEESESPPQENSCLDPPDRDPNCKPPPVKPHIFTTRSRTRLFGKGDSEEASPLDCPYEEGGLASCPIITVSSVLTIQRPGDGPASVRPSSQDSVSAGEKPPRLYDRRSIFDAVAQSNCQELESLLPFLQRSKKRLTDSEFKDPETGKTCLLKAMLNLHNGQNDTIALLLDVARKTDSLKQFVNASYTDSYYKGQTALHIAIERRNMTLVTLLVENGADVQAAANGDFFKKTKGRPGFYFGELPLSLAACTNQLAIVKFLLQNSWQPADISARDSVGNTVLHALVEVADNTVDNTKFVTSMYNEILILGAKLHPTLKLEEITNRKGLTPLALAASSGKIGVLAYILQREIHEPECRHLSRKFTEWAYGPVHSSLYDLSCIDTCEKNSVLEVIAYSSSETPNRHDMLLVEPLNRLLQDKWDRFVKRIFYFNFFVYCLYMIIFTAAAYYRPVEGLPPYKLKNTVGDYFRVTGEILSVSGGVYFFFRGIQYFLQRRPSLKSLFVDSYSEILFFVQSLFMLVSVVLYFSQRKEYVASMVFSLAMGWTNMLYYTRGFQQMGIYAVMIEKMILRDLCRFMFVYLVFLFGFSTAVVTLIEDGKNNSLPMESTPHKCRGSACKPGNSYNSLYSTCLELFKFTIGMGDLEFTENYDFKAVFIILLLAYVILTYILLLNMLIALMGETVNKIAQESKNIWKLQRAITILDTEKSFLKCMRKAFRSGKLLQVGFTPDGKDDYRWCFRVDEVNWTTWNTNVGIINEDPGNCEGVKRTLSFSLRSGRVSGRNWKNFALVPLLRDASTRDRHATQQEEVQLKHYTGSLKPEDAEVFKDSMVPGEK

Columns and labels:
Type in all cases: functional, cell-based
[1] = biological target: T1, Transient receptor potential cation channel subfamily V member 1 (Rattus norvegicus, UniProt O35433); assay: Antagonist activity at rat TRPV1 expressed in CHO cells assessed as blockade of acid-induced receptor activation by [45Ca2+] uptake assay
[2] = biological target: T1, Transient receptor potential cation channel subfamily V member 1; assay: Antagonist activity at rat TRPV1 expressed in CHO cells assessed as blockade of capsaicin-induced receptor activation by [45Ca2+] uptake assay
[3] = biological target: T1, Transient receptor potential cation channel subfamily V member 1; assay: Antagonist activity at rat TRPV1 expressed in HEK293 cells assessed as blockade of capsaicin-induced receptor activation by FLIPR assay
[4] = biological target: T1, Transient receptor potential cation channel subfamily V member 1; assay: Antagonist activity at rat TRPV1 expressed in HEK293 cells assessed as blockade of acid-induced receptor activation by FLIPR assay

pIC50 [1] | pIC50 [2] | pIC50 [3] | pIC50 [4] | SMILES
6.53 | 7.07 | – | – | CC(C)(C)c1ccc(/C=C/C(=O)Nc2ccc3c(c2)OCCO3)cc1
9.15 | – | 8.72 | 9.22 | CC(C)(C)c1ccc(NC(=O)N2CCN(c3ncccc3Cl)CC2)cc1
